ChEMBL document CHEMBL2169839 (J Med Chem, 2012)
pIC50: −log10 of the molar value.

Target: T1, Aldo-keto reductase family 1 member C3 (Homo sapiens, UniProt P42330)
T1 sequence (P42330 whole entry): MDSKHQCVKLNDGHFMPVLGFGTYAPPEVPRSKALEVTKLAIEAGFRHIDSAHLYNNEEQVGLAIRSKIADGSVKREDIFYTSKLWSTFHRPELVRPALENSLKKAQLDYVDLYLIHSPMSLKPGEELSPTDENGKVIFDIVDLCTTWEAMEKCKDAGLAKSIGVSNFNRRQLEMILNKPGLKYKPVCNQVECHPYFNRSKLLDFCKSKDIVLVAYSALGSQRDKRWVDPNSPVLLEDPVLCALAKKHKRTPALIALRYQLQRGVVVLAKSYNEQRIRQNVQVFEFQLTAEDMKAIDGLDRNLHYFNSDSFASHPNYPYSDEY
Assay: biochemical

COc1ccc2cc([C@H](C)C(=O)O)ccc2c1 [NAPROXEN]
pIC50: 5.96
